For the experiment, the system named is phosphorylated ERK1/2 (MAPK pathway) in HKGS-activated HEKa cells. Description: Reversal of EGFR inhibitor-mediated pERK inhibition in HKGS-activated HEKa cells, Western blot. It counts as cell-based, human. The following applies: HKGS plus cetuximab 50 μg/mL, two hours. How it is done: Primary HEKa, isolated from adult skin of a single donor and cryopreserved at the end of primary culture (Gibco catalog number C0055C, Thermo Fisher Scientific, Waltham, MA), were cultured in T25 flasks at 37° C., 5% CO2 in growth medium (Epilife™ CF Kit, Gibco) supplemented with 60 μM calcium (Gibco) and HKGS (Gibco). After at least three passages, cells were harvested with trypsin when flask reached 70-80% confluence, and seeded in 10 cm culture dishes (250,000 cells/dish) in 9 ml of growth medium overnight. To analyze the effect of HKGS or a BRAF inhibitor on pERK, cells were starved for 2.5 hours in 5 mL of starvation medium without HKGS, and then individual plates were incubated for two hours with DMSO 0.1%, HKGS, vemurafenib 0.3 μM (0.146 μg/mL), or LUT014 0.3 μM (0.158 μg/mL). To analyze the effects of LUT014 to re-activate pERK in HKGS-activated HEKa cells cultured in an EGFR inhibitor, cells were seeded in 60 mm dishes (120,000 cells/dish) in 4 ml growth medium. […] The signals of phosphorylated ERK1/2 and total ERK2 were quantified using ImageJ software and the phosphorylated ERK1/2/total ERK2 ratio was calculated. For the quantification, equal sized rectangles were drawn around the bands of the phosphorylated ERK1/2 and the total ERK2 and the pixels in each rectangle were measured.

Consider cetuximab, for which the “HKGS stimulation of the MAPK pathway (pERK)” value is recorded as “partially inhibited”.
